Chains of the proteins cited; added tags and fusions are not shown.
UniProt P09874, whole entry: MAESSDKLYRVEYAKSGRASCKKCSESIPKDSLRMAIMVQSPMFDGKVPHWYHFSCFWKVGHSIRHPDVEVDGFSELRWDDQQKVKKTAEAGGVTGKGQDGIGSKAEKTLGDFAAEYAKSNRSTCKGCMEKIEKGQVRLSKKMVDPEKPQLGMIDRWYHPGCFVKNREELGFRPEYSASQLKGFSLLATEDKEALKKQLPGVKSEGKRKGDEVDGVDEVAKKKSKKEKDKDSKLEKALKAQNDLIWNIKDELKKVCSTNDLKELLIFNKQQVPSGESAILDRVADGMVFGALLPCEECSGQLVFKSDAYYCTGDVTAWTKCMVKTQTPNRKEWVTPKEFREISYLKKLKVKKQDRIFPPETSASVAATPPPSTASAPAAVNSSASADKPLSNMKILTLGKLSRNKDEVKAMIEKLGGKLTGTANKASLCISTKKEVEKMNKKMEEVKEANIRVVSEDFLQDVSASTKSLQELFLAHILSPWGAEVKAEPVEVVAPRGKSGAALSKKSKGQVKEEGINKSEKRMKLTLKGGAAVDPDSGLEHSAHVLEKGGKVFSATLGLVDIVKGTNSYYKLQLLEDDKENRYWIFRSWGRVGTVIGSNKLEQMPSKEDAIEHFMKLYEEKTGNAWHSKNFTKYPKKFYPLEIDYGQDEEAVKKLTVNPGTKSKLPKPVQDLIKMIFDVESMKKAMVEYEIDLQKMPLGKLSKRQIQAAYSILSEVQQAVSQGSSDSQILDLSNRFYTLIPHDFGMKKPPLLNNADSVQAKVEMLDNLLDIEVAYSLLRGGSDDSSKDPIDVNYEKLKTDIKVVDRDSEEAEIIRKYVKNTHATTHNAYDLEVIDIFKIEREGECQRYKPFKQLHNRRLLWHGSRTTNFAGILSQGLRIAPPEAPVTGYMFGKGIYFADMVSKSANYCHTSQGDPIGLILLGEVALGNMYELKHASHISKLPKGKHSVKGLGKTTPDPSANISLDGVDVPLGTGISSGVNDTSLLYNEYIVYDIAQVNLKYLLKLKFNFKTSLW

This experiment concerns the target recombinantly expressed human PARP-1 enzyme (Homo sapiens, UniProt P09874). In words: PARP enzyme assay (half-maximum inhibitor concentration). It is filed as biochemical. The conditions noted are these: DNA-activated PARP-1, 200 μM NAD, tritium-labeled NAD incorporation, room temperature, 1 hour, pH 8.0. The method, then:
Pharmacological Investigations PARP Enzyme Assay
The half-maximum inhibitor concentration is determined by incubating the substances to be tested with the DNA-activated, recombinantly expressed and purified PARP-1 enzyme. Specifically, various concentrations of the test substance are incubated in 50 μl of reaction solution, which contains 50 mM Tris, 5 mM MgCl2, 1 mM DTT, 200 μM NAD, 0.1 mCi/ml tritium-labeled NAD, 0.1 mg/ml DNA, 0.1 mg/ml histones, 2 μg/ml recombinantly expressed human PARP-1 enzyme, pH=8.0, at room temperature for 1 hour. The reaction is stopped by adding 150 μl of 20% trichloroacetic acid, and the radiolabeled protein constituents are precipitated. After incubation on ice for 10 minutes, the labeled, insoluble constituents are separated off through a glass fiber filter and, after washing with 20% trichloroacetic acid three times, the radioactivity incorporated by the PARP-1 enzyme is measured by radioluminescence. Consideration of the incorporation rates determined in this way as a function of the concentration of the test substance results in the half-maximum inhibitor concentration (IC50) as the concentration of the test substance which reduces the incorporation rate to half the maximum value attainable (incubation without inhibitor).
IC-50 values were determined in this way for the following compounds: […]
Consider `CN1CCCC1CCNCc1ccc(-c2c[nH]c(=O)c3c2CCCC3)o1` (stereo not shown) [Example 60, 4-(5-{[2-(1-methylpyrrolidin-2-yl)-ethylamino]methyl}furan-2-yl)-5,6,7,8-tetrahydro-2H-isoquinolin-1-one], for which the half-maximal inhibitory concentration (IC50) amounted to 0.56 µM.
On to “N-[2-(4-nitrophenyl)ethyl]-5-(1-oxo-1,2,5,6,7,8-hexahydroisoquinolin-4-yl)nicotinamide [Example 29]”, for which the IC50 stood at 0.56 µM.
In the case of “N-[2-(4-pyridinecarbamoylaminoethyl)]-5-(1-oxo-1,2,5,6,7,8-hexahydroisoquinolin-4-yl)-nicotinamide [Example 31]”, the IC50 worked out at 4.8 µM.
With “N-[(4-nitrobenzoylamino)methyl]-5-(1-oxo-1,2,5,6,7,8-hexahydroisoquinolin-4-yl)nicotinamide [Example 30]”, the IC50 was determined as 3.35 µM.

One may read the IC50 as the concentration needed to halve the response being measured.

The values above are taken from patent US7795278B2 (sanofi-aventis Deutschland GmbH, priority 2004, dated 2010).
